Assay results reported in PubChem BioAssay AID540308 (The Scripps Research Institute Molecular Screening Center, 2011).
Values joined by “and” are separate entries in the source; they are usually repeats but may differ in a detail not shown here. Equal values may be shown once. This is a selection; strong and weak results do not stand in their true shares. Active and inactive are the calls of the source.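 How the source made its calls: active means activation above a per-plate cutoff, the mean activation of sample wells on that plate plus 3 SD (cut at about 8% in these data); inactive means the rest.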

By UniProt entry, the sequences of proteins in these tests, tags left out.
UniProt P32245, whole entry, looked up: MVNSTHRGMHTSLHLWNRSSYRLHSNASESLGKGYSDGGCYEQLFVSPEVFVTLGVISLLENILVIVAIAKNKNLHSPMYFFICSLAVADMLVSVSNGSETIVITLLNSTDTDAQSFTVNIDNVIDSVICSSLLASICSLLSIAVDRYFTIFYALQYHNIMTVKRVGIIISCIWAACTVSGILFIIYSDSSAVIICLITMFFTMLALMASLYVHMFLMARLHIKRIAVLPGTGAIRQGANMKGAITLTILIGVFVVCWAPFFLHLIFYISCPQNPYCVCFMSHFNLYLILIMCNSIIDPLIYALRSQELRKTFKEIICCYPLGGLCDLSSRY

Biological target: Melanocortin receptor 4 (Homo sapiens) (UniProt P32245)
Assay: MC4R agonists recruiting beta-arrestin, primary screen, cell-based, luminescence, agonist arm of biased-ligand search (AID 540308)
Details: U2OS MC4R beta-arrestin complementation, at 8.9 µM, active compounds read high, percent of melanotan II response, DMSO zero

Structure (SMILES) | activation
Cc1nn(-c2ccccc2)c2c1P(=O)(N1CCOCC1)N(C)C(c1ccccc1)=N2 (configuration not stated) | inactive: -1.26%
CN(C)C1(CNC(=O)c2ccc(S(C)(=O)=O)cc2)CCCCC1 | inactive: 0.63%
CCCC1OP(=O)(Nc2ccccc2)OCC1CC (configuration not stated) | inactive: 2.1%
O=C(/C=C/c1ccccc1)OC1CN2CCC1CC2 (configuration not stated) | inactive: -3.12%
O=P1(Nc2ncccn2)COc2ccccc2OC1 | inactive: -1.96%
Nc1cccc([As](=O)(O)c2ccccc2)c1 | inactive: -3.33%
O=[As](O)(c1cccs1)c1cccs1 | inactive: -0.78%
Cc1ccc(OCC(=O)OC2CN3CCC2CC3)cc1 (configuration not stated) | inactive: -1.89%
O=P1(Nc2ccc(Br)cn2)COc2ccccc2OC1 | inactive: -1.41%
NS(=O)(=O)c1cccc(NC(=O)COC(=O)C(O)(c2ccccc2)c2ccccc2)c1 | inactive: -1.11%
CCOP(=O)(NC(=NC(C)c1ccccc1)NC(C)c1ccccc1)OCC (configuration not stated) | inactive: -2.39%
O=P1(Nc2ccccn2)COc2ccccc2OC1 | inactive: 0.88%
CCC1=CC2Cc3nc4ccc(Cl)cc4c(N)c3C(C1)C2 (configuration not stated) | inactive: 1.37%
CCOP(=O)(Nc1ccc(C)cn1)OCC | inactive: -0.54%
CN(CCCl)Cc1cc(Cl)c(NC2=NCCN2)c(Cl)c1 | inactive: -0.75%
CC(C)(C)C(=O)NC(Sc1ncccn1)C(Cl)(Cl)Cl (configuration not stated) | inactive: -0.28%
O=P1(N(CCCl)CCCl)NCCC(C(F)(F)F)O1 (configuration not stated) | inactive: -0.73%
Clc1n[nH]nc1-c1nn[nH][15n]1 | inactive: -0.66%
COc1ccccc1CNC(=O)COC(=O)C(O)(c1ccccc1)c1ccccc1 | inactive: -3.08%
CC(C)/C=N\N=C(\N)N[N+](=O)[O-] | inactive: 0.26%
CN(C(=O)Cc1ccc(Cl)c(Cl)c1)[C@@H]1CCCC[C@H]1N1CCCC1 | inactive: -0.17%
CC1(CBr)Cn2c(nc3ccccc3c2=O)S1 (configuration not stated) | inactive: -0.97%
O=C(OC1CN2CCC1CC2)c1ccc(Cl)cc1 (configuration not stated) | inactive: -0.36%
CS(=O)(=O)c1ccc(Cl)c(NC(=O)COC(=O)C(O)(c2ccccc2)c2ccccc2)c1 | inactive: -1.66%

Structure (SMILES) | activation
O=[As](O)(O)c1cccnc1 | inactive: -1.97%
COc1cc(C(=O)NCC2(N3CCOCC3)CCCCC2)cc(Cl)c1OC(C)C | inactive: 0.53%
Cc1cccc(OCC(=O)OC2CN3CCC2CC3)c1 (configuration not stated) | inactive: 0.4%
O=[As](O)(c1cccc(O)c1)c1cccc(O)c1 | inactive: 0.62%
Nc1cccc2c([As](=O)(O)O)cccc12 | inactive: 1.01%
Cc1ccc(NCCc2c([N+](=O)[O-])cc([N+](=O)[O-])cc2[N+](=O)[O-])cc1 | inactive: 1.36%
CCCOP(=S)(Nc1nc(N)cc(=O)[nH]1)OCCC | inactive: 0.6%
CCOP(=O)(Nc1cccc2ccccc12)OCC | inactive: -1.93%
COc1cc(C2NCCC3(OCCO3)C2(C)C)cc(OC)c1OC (configuration not stated) | inactive: 0.9%
O=P(Nc1nccs1)(Oc1ccccc1)Oc1ccccc1 | inactive: 1.6%
O=P(Nc1nccs1)(c1ccccc1)c1nc2ccccc2s1 (configuration not stated) | inactive: -0.45%
CCOP1(=S)c2c(C)nn(CCC#N)c2N=C(c2ccccc2F)N1C (configuration not stated) | inactive: -1.52%
CS(=O)(=O)c1cc([N+](=O)[O-])c2no[n+]([O-])c2c1 | inactive: -1.07%
Nc1ccccc1[As](=O)(O)c1ccccc1 | inactive: -0.29%
O=C(O)COc1ccc([As](=O)(O)O)cc1[N+](=O)[O-] | inactive: 2.21%
NC(=O)Nc1ccc([As](=O)(O)O)cc1 | inactive: -1.76%
COc1ccc(CC(C)NCC(O)c2ccc(O)c(NC=O)c2)cc1 (configuration not stated) | inactive: -0.33% and inactive: -1.76%
CCOP1(=S)c2c(C)nn(CCC#N)c2N=C(c2ccc(F)cc2)N1C (configuration not stated) | inactive: 2.66%
CN(C(=O)Cc1ccccc1)[C@@H]1CC[C@]2(CCCO2)C[C@H]1N1CCCC1 | inactive: 0.85%
N#CCCN(C(=O)COC(=O)C(O)(c1ccccc1)c1ccccc1)c1ccc(F)cc1 | inactive: -2.53%
CN(C(=O)Cc1ccc(Cl)c(Cl)c1)[C@H]1CC[C@@]2(CCCO2)C[C@@H]1N1CCCC1 | inactive: 0.64%
O=[N+]([O-])c1ccc2c(c1)nnn2O | inactive: -0.71%
CN(C)C(=O)c1cc([N+](=O)[O-])cc2c1-c1c(cc([N+](=O)[O-])cc1[N+](=O)[O-])C2=O | inactive: -2.67%
